# Laboratory results taken from US11905324B2, “Fluorescent fusion polypeptide capable of detecting phosphorylation of cellular membrane receptors by GRKs (G-protein receptor kinases) and/or receptor tyrosine kinases (RTKs)” (Innovative Technologies in Biological Systems SL, priority 2017, dated 2024).
# Protein sequences, listed by entry. Tags and fused reporters are not part of them.
# UniProt P30989, whole entry, species assumed: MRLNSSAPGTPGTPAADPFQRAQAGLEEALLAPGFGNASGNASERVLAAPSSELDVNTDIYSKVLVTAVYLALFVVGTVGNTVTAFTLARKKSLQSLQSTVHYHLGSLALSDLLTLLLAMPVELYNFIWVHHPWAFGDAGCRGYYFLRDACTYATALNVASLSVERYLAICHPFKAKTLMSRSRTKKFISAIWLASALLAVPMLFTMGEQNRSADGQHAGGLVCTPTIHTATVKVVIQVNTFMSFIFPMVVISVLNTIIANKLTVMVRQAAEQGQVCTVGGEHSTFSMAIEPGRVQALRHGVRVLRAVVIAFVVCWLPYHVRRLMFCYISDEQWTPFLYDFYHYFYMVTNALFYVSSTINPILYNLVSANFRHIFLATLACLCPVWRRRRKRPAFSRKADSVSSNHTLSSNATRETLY
# Target: T1, NTSR1 (Homo sapiens, UniProt P30989)
# T1 construct: expressed in transfected cells
# Experiment: Anti-TAC immunofluorescence assay of NTSR1 ArrestinNomad biosensor cell line
# Format: cell-based
# Conditions: NTS 1 μM, 24 hours
# Protocol: After overnight incubation, cell media was removed and it was performed a 15 minutes incubation with FBS (Sigma-Aldrich) at 4° C. Followed by a 90 minutes incubation at 4° C. with FITC anti-human CD25 antibody (Biolegend) at 1:20 concentration. Cells were then washed twice with PBS (Sigma-Aldrich). Fluorescent images were acquired in the BD PATHWAY 855 High-Content automated image platform (Franklin Lakes, NJ) with a ×20 dry objective. The excitation and emission filters used were the following: for FITC, 488/10 and 540/20; and for FP650, 548/20 and 570LP.
substance,measurement,value
NTS,Localization of ArrestinNomad biosensor after addition of the agonist,relocalization of the biosensor from the plasma membrane to vesicle trafficking pathways
